The entries are a selection whose mix differs from that of the whole data set. Some salts or complexes appear as unconnected parts, following the source record. Calls of active or inactive are those of the source.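 The calls were made as follows: active = more than half of replicate wells score below -50%, meaning over 50% inhibition versus plate controls; inconclusive = some replicates but at most half score below -50%; inactive = no replicate scores below -50%.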

Amino acid sequences for entries named in this document (tags omitted).
UniProt P49841, whole entry: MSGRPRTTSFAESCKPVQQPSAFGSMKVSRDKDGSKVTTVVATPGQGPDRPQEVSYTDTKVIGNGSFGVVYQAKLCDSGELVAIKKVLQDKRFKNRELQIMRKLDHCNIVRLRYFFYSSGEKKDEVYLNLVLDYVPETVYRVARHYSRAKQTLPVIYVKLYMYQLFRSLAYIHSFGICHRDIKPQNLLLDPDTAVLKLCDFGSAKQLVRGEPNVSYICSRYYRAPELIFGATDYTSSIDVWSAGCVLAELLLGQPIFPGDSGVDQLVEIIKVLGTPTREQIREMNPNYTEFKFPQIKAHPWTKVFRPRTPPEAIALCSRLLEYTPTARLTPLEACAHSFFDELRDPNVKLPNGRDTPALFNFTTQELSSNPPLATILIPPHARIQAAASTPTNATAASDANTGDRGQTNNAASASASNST

The target of this assay is Glycogen synthase kinase-3 beta (Homo sapiens) (UniProt P49841). Nature of the assay: human GSK3beta kinase inhibitors, primary screen, biochemical, cell-free homogeneous, HTS (AID 2097).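 Also: 0% = median DMSO wells and -100% = median GW8510 positive control wells.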 The settings on record: GST-GSK3beta kinase, ADP-Glo luminescence, 60 min; at 10 µM; active compounds read low. For orientation: ADP-Glo turns the ADP formed in a reaction into a luminescent signal.
Turning to `Cc1c(NP(C)(=O)Oc2ccc(C(C)C)cc2)c(=O)n(-c2ccccc2)n1C` (stereo not drawn), the activity score (negative = inhibition) was inactive: 0.762%.
The same measure for `O=[N+]([O-])c1cc([N+](=O)[O-])c(Nc2ccccn2)c([N+](=O)[O-])c1`: inactive: 0.803%; for `CCc1ccc(OP(C)(=O)O)cc1`: inactive: -2.73%; for `CP(=O)(Nc1ccccn1)Oc1ccccc1` (stereo not drawn): inactive: 1.91%.
To `COc1ccccc1OP(C)(=O)Nc1ccc(C)cc1C` (stereo not drawn) belongs inactive: 2.75%; to `COc1ccccc1OP(C)(=O)Nc1ccc(Br)cc1` (stereo not drawn), inactive: -1.79%; to `CN(C)CCOC(=O)C(O)(c1ccccc1)C1CCCC1` (stereo not drawn), inactive: 0.769%.
The same measure for `COc1ccc(OP(C)(=O)Nc2ccccn2)cc1` (stereo not drawn): inactive: -25.7%; for `Cc1nc2ccc3ccccc3c2o1.O=[N+]([O-])c1cc([N+](=O)[O-])c(O)c([N+](=O)[O-])c1`: inactive: -2.93%; for `CP(=O)(Nc1ccc(Cl)cc1Cl)Oc1ccccc1` (stereo not drawn): inactive: -4.31%.
In the case of `CP(=O)(OCCOc1ccccc1)OCCOc1ccccc1`, the activity score (negative = inhibition) was inactive: 0.21%.
For the molecule `Cc1cc(C)cc(OP(C)(=O)Nc2cccc(C(F)(F)F)c2)c1` (stereo not drawn), the activity score (negative = inhibition) was inactive: -4.03%.
The same measure for `COc1ccc(OP(C)(=O)Nc2ccccc2Br)cc1` (stereo not drawn): inactive: 2.87%; for `COc1ccccc1OP(C)(=O)Nc1ccc(C)c(C)c1` (stereo not drawn): inactive: 0.297%; for `Nc1ccc2c(ccc3cccnc32)n1.O=[N+]([O-])c1cc([N+](=O)[O-])c(O)c([N+](=O)[O-])c1`: inactive: 1.52%.
To `CP(=O)(OC12CC3CC(CC(C3)C1)C2)OC12CC3CC(CC(C3)C1)C2` belongs inactive: -3.77%; to `CCOC(=O)c1ccc(NP(C)(=O)Oc2ccc(Cl)cc2)cc1` (stereo not drawn), inactive: 0.659%; to `CP(=O)(Nc1ccc(Cl)cc1)Oc1ccc(F)cc1` (stereo not drawn), inactive: 5.33%.
Take `COc1ccccc1OP(C)(=O)Nc1ccccc1Br` (stereo not drawn): the activity score (negative = inhibition) was inactive: 3.62%.
With `CC(C)(C)c1ccc(OP(C)(=O)O)cc1`, the activity score (negative = inhibition) is inactive: -1.39%.
To `CN(C)C(=O)c1c([N+](=O)[O-])cc([N+](=O)[O-])cc1[N+](=O)[O-]` belongs inactive: 4.38%; to `CCN(CC)CC(O)COC(=O)C(O)(c1ccccc1)C1CCCCC1` (stereo not drawn), inactive: 5.2%.
The same measure for `COc1ccc(OP(C)(=O)Nc2ccc(Br)cc2)cc1` (stereo not drawn): inactive: 3.51%; for `CP(=O)(Oc1ccccc1)N1CCOC1=O` (stereo not drawn): inactive: 1.62%; for `CCc1ccc(OP(C)(=O)Nc2cccnc2)cc1` (stereo not drawn): inactive: 2.32%.
The same measure for `COc1ccccc1OP(C)(=O)Nc1c(C)n(C)n(-c2ccccc2)c1=O` (stereo not drawn): inactive: 2.94%; for `O=C(OCCCN1CCCC1)C(O)(c1ccccc1)C1CCCCC1` (stereo not drawn): inactive: -0.752%; for `CP(=O)(Nc1ccc2c(c1)OCCO2)Oc1ccccc1` (stereo not drawn): inactive: -0.9%.
With `Cc1ccccc1NP(C)(=O)Nc1ccccc1C`, the activity score (negative = inhibition) was inactive: 2.45%.
To `CP(=O)(Nc1ccc(SC(F)(F)F)cc1)Oc1ccc(F)cc1` (stereo not drawn) belongs inactive: -0.884%; to `CCOP(C)(=S)SCC(=O)NC(C)(CC)C(=O)O` (stereo not drawn), inactive: -2.18%.
The same measure for `O=[N+]([O-])c1cc([N+](=O)[O-])c(NCC2CCS(=O)(=O)C2)c([N+](=O)[O-])c1` (stereo not drawn): inactive: -2.59%; for `Cc1cc(-c2cccc3ccccc23)c(C)cn1.O=[N+]([O-])c1cc([N+](=O)[O-])c(O)c([N+](=O)[O-])c1`: inactive: 0.33%.
To `O=[N+]([O-])c1ccc(OP2(=O)COCCO2)cc1` (stereo not drawn) belongs inactive: -4.09%.
For `COc1ccc(OP(C)(=O)Nc2cccc(Br)c2)cc1` (stereo not drawn), the activity score (negative = inhibition) was inactive: -1.39%.
The same measure for `COc1ccc(NP(C)(=O)Oc2ccccc2OC)cc1` (stereo not drawn): inactive: 1.72%; for `CN(C)CCOC(=O)C(O)(c1ccccc1)C1CCCCC1` (stereo not drawn): inactive: 1.54%; for `CCN(CC)CCCOC(=O)C(O)(c1ccccc1)C1CCCCC1` (stereo not drawn): inactive: 1.15%.
The same measure for `CCCCCOc1ccc(NP(C)(=O)Oc2ccc(Cl)cc2Cl)cc1` (stereo not drawn): inactive: -3.26%.
With `O=[N+]([O-])c1cc([N+](=O)[O-])c(OC2CCCCC2O)c([N+](=O)[O-])c1` (stereo not drawn), the activity score (negative = inhibition) was inactive: 3.33%.
To `CP(=O)(Nc1ccccc1)Oc1ccc(F)cc1` (stereo not drawn) belongs inactive: 1.58%; to `COc1ccc(OP(C)(=O)Nc2ccc(SC(F)(F)F)cc2)cc1` (stereo not drawn), inactive: 1.64%; to `CCOC(=O)c1ccc(NP(C)(=O)Oc2ccc(F)cc2)cc1` (stereo not drawn), inactive: 1.89%.
The same measure for `O=C(OCCN1CCN(CCOCc2ccccc2)CC1)C(O)(c1ccccc1)c1ccccc1`: inactive: -0.974%; for `O=C(OC1CN2CCC1CC2)c1ccc([N+](=O)[O-])cc1` (stereo not drawn): inactive: -2.13%; for `COc1ccc2c(c1O)-c1c(O)c(OC)cc3c1[C@H](C2)[N+](C)(C)CC3.O=[N+]([O-])c1cc([N+](=O)[O-])c([O-])c([N+](=O)[O-])c1[O-]`: inactive: 0.166%.
To `CC(C)c1ccc(OP(C)(=O)Nc2ccc(SC(F)(F)F)cc2)cc1` (stereo not drawn) belongs inactive: -6.89%; to `CP(=O)(Nc1ccccc1F)Oc1ccccc1` (stereo not drawn), inactive: 4.33%; to `Cc1cc(C)cc(OP(C)(=O)Nc2ccccn2)c1` (stereo not drawn), inactive: -0.929%.
For `CP(=O)(Nc1cccc(Br)c1)Oc1ccccc1` (stereo not drawn), the activity score (negative = inhibition) was inactive: -1.81%.
To `Cc1ccc(C)c(NP(C)(=O)Oc2ccccc2)c1` (stereo not drawn) belongs inactive: -0.341%.
To `COc1ccccc1OP(C)(=O)Nc1cccc(Br)c1` (stereo not drawn) belongs inactive: -2.32%; to `Cc1cc(C)cc(OP(C)(=O)Nc2ccc(C)cc2C)c1` (stereo not drawn), inactive: 3.45%; to `CCOC(=O)c1ccc(NP(C)(=O)Oc2cc(C)cc(C)c2)cc1` (stereo not drawn), inactive: 3.27%.
Turning to `CC1=NCCc2c1[nH]c1ccccc21.O=[N+]([O-])c1cc([N+](=O)[O-])c(O)c([N+](=O)[O-])c1`, the activity score (negative = inhibition) was inactive: -0.157%.
With `O=C(O)c1cccc(Nc2c([N+](=O)[O-])cc([N+](=O)[O-])cc2[N+](=O)[O-])c1`, the activity score (negative = inhibition) was inactive: 3.54%.
The same measure for `CN1CCCCC1COC(=O)C1(O)c2ccccc2CCc2ccccc21` (stereo not drawn): inactive: 3.26%.
To `COc1ccccc1OP(C)(=O)Nc1c(C)cccc1C` (stereo not drawn) belongs inactive: 2.35%; to `CCCOc1ccc(NP(C)(=O)Oc2ccc(Cl)cc2)cc1` (stereo not drawn), inactive: -1.71%; to `CP(=O)(Nc1ccc(SC(F)(F)F)cc1)Oc1ccccc1` (stereo not drawn), inactive: 2.24%.
To `O=[N+]([O-])c1cc([N+](=O)[O-])c(Nc2nnnn2CCO)c([N+](=O)[O-])c1` belongs inactive: 3.57%; to `CCOC(=O)C(CC)C1=NC(C)(C)Cc2ccccc21.O=[N+]([O-])c1cc([N+](=O)[O-])c(O)c([N+](=O)[O-])c1` (stereo not drawn), inactive: -22.6%; to `O=[N+]([O-])c1cc([N+](=O)[O-])c(-c2cnn(-c3ccccc3)c2)c([N+](=O)[O-])c1`, inactive: 0.264%.
`O=[N+]([O-])c1cc([N+](=O)[O-])c(-n2nnc3ccccc32)c([N+](=O)[O-])c1`: the activity score (negative = inhibition) was inactive: 3.6%.
Turning to `CCOP(C)(=S)SCC(=O)NC(C)C(=O)O` (stereo not drawn), the activity score (negative = inhibition) is inactive: 1.77%.
The same measure for `O=[N+]([O-])c1cc([N+](=O)[O-])c(O)c([N+](=O)[O-])c1.c1ccc(Oc2ccncc2)cc1`: inactive: -24.8%; for `CCOC(=O)c1ccc(NP(C)(=O)Oc2ccc(OC)cc2)cc1` (stereo not drawn): inactive: 3.24%; for `CP(=O)(Nc1ccccn1)Oc1ccc(Cl)cc1` (stereo not drawn): inactive: -1.25%.
Turning to `CP(=O)(Nc1ccc(SC(F)(F)F)cc1)Oc1ccc(Cl)cc1` (stereo not drawn), the activity score (negative = inhibition) is inactive: -6.65%.
To `Cc1cccc(C)c1OP(C)(=O)Nc1ccc(SC(F)(F)F)cc1` (stereo not drawn) belongs inactive: -23.9%; to `CP(=O)(Oc1ccccc1)OC(c1ccccc1)C(F)(F)F` (stereo not drawn), inactive: -2.84%; to `CP(=O)(NC(=O)Nc1ccccc1)Oc1ccccc1` (stereo not drawn), inactive: 4.78%.
To `CCc1ccc(OP(C)(=O)N2CCN(c3ccc([N+](=O)[O-])cc3)CC2)cc1` (stereo not drawn) belongs inactive: 6.22%.
To `Cc1cc(C)cc(OP(C)(=O)Nc2ccc(SC(F)(F)F)cc2)c1` (stereo not drawn) belongs inactive: 0.847%; to `CP(=S)(Nn1cnnc1)Oc1ccccc1` (stereo not drawn), inactive: 5.59%.
Take `COc1ccccc1OP(C)(=O)Nc1ccccc1` (stereo not drawn): the activity score (negative = inhibition) was inactive: 0.863%.
For the molecule `CP(=O)(Nc1ccccc1Br)Oc1ccccc1` (stereo not drawn), the activity score (negative = inhibition) is inactive: -1.94%.
The same measure for `CCOC(=O)c1ccc(NP(C)(=O)Oc2ccccc2)cc1` (stereo not drawn): inactive: 2.13%.
`COc1ccccc1OP(C)(=O)Nc1ccc(C)cc1` (stereo not drawn): the activity score (negative = inhibition) was inactive: 0.588%.
The same measure for `Cc1ccc(NP(C)(=O)Oc2ccccc2)c(C)c1` (stereo not drawn): inactive: 1.25%.
The same measure for `COc1ccccc1OP(C)(=O)Nc1cc(Cl)ccc1C` (stereo not drawn): inactive: 2.28%.
The same measure for `COc1ccc(OP(C)(=O)Nc2cccc(F)c2)cc1` (stereo not drawn): inactive: -21.4%.
`Cc1cc(C)cc(OP(C)(N)=O)c1` (stereo not drawn): the activity score (negative = inhibition) is inactive: -0.452%.
The same measure for `O=[N+]([O-])c1cc([N+](=O)[O-])c(Nc2cccnc2)c([N+](=O)[O-])c1`: inactive: -2.17%; for `CC(C)(C)c1ccc(OP(C)(=O)Nc2ccc(SC(F)(F)F)cc2)cc1` (stereo not drawn): inactive: 2.61%.
To `Cc1cccc(C)c1OP(C)(N)=O` (stereo not drawn) belongs inactive: -26.2%; to `O=[N+]([O-])c1ccc2c(c1)C=Nc1ccccc1O2`, inactive: -2.82%; to `CCN(CC)CCCOC(=O)C(O)(c1ccccc1)c1ccccc1`, inactive: 0.62%.

(Values after PubChem BioAssay AID2097 (Broad Institute, 2009).)
